Source: US10899786B2, “Nucleoside phosphate compound and preparation method and use thereof” (SICHUAN KELUN-BIOTECH BIOPHARMACEUTICAL CO., LTD., priority 2016, dated 2021)

System: human primary hepatocytes
Assay: Nucleoside triphosphate metabolite (3P) production in human primary hepatocytes
Type: in vitro ADME
Conditions: 25 μM test compound, 6 h, 37° C.

| Substance | 3P production amount [nM] | 3P production rate [pmol/10^6/min] |
| --- | --- | --- |
| ((2R,3R,4R,5R)-5-(2,4-dioxo-3,4-dihydropyrimidin-1(2H)-yl)-4-fluoro-3-hydroxy-4-methyl tetrahydrofuran-2-yl)methyl-phenyl-((R)-1-(2-methylbenzyloxy)propan-2-yl)phosphoramidate | 4170 | 11.5 |
| ((2R,3R,4R,5R)-5-(2,4-dioxo-3,4-dihydropyrimidin-1(2H)-yl)-4-fluoro-3-hydroxy-4-methyltetrahydro furan-2-yl)methyl-phenyl-((S)-1-(2-methylbenzyloxy)propan-2-yl)phosphoramidate | 1273 | 3.5 |
| (R)-((((R)-1-(6-amino-9H-purin-9-yl)propan-2-yl)oxy)methyl)-naphtha-1-yloxy-N-(2-(2-methylbenzyloxy)ethyl)-phosphoramide [Ex. 20 - Isomer A] | 364 | 1.01 |
| (R)-((((R)-1-(6-amino-9H-purin-9-yl)propan-2-yl)oxy)methyl)-naphtha-1-yloxy-N-(2-(2-methylbenzyloxy)ethyl)-phosphoramide [Ex. 20 - Isomer B] | 625 | 1.73 |
